Literature values as cited in patent EP0087750B2, “Amino acid preparations containing glutaminic residues” (Kabi Pharmacia GmbH, priority 1982, dated 1994).

Test system: Hydrolasen in den Geweben des Organismus
Conditions: in vivo, cited from earlier work

## Glycyl-glycin
iv
  Elimination aus dem Plasma: schnell aus dem Plasma eliminiert
  Spaltung durch Hydrolasen in den Geweben: gut gespalten
